Assay results from patent US20260297016A1, “THERAPEUTIC COMPOUNDS” (REGENTS OF THE UNIVERSITY OF MINNESOTA, priority 2023, published 2026).

System: 661 W cells
Assay: 4-HNE-induced ROS production in 661 W cells
Settings: 12.5 μM, 2 hours, 4-HNE 10 μM, 24 hours, n=6

`O=C(Nc1ccc(O)c(NS(=O)(=O)c2ccc(F)cc2)c1)c1ccc(-c2ccccc2)cc1` [SN-011] was tested, and the “4-HNE-induced production of ROS” value was “Reduction in 4-HNE-induced production of ROS”.
